The record followed here is patent US4900748A (priority 1988, dated 1990).

Chains of the proteins cited; added tags and fusions are not shown. Residues count along the entry.
UniProt O42275, 24-633: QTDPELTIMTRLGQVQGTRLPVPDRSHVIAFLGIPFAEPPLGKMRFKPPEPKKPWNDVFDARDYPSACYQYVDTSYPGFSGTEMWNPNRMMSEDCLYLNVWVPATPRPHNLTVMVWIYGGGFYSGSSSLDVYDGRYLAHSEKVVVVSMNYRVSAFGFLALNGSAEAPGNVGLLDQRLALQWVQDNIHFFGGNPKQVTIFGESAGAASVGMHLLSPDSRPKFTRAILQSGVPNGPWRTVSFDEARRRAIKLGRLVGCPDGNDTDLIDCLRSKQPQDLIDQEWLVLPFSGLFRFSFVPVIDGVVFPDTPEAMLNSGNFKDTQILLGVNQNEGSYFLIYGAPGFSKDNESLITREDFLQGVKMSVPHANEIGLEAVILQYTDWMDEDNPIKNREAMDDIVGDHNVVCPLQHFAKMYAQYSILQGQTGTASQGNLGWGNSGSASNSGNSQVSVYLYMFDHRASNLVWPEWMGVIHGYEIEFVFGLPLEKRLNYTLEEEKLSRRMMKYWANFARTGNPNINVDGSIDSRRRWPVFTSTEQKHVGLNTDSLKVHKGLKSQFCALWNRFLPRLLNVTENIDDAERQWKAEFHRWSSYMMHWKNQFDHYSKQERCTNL

Each structure is given as a SMILES string.

The target in the assay is Acetylcholinesterase (Eel) (Electrophorus electricus, UniProt O42275). The assay is described as follows: biochemical.

For orientation: IC50 means the concentration at which inhibition is half-maximal. Low readings indicate greater potency in that assay, high ones weaker potency in that assay. Regarding `CNC(=O)Oc1ccc2c(c1)[C@]1(C)CCN(C)[C@@H]1N2C` (relative stereo) [(+/-)physo, reference compound], the IC50 worked out at 92 nM.
